Hits are enriched below; roughly 1.9% of the tested compounds scored in any of these assays.
ARNT-TACC3 inh: disruptors of ARNT/TACC3 protein interaction, primary screen, biochemical, AlphaScreen, single concentration; Transforming acidic coiled-coil-containing protein 3 (Homo sapiens), Q9Y6A5; hit rate 0.66% among 390,000; inhibition, % at 9.99 µM; AlphaScreen His-ARNT PAS-B/GST-TACC3 binding, luminescence; TACC3 fragment carries E629A point mutation;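 active = mean inhibition of replicates at least 50% and at least half of replicates each reaching 50%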
ERp5 inh: inhibitors of ERp5-driven insulin aggregation, primary screen, biochemical, turbidity, absorbance 650 nm, single point | 90 min | Protein disulfide-isomerase A6 (Homo sapiens), Q15084 | inhibition, % at 9.99 µM | hit rate 0.05% among 350,000;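 active = mean replicate inhibition above about 25%, with every replicate also reaching it, limit read from the data, passing the limit was not always enough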
Yeast UUG start-1: alters start codon recognition fidelity in yeast; S. cerevisiae UUG-firefly luciferase reporter, luminescence/redox ratio; activity score, % at 18.7 µM; actives 0.13% (n = 350,000);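 active means replicate mean at a twofold rise or more, about +100% in these data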;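 further: firefly luciferase made from a UUG start codon reports start codon fidelity; reporter light over untreated wells divided by growth signal over untreated wells; some hits fall short of that in this replicate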
PDI inh: inhibitors of human PDI, primary screen, biochemical, turbidity, single point, plate reader. Protein disulfide-isomerase (Homo sapiens), P07237. PDI insulin aggregation turbidity, A650, 90 min. inhibition, % at 10 µM. hit rate 0.052% among 350,000;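 active = mean inhibition across replicates of 30% or more, whatever share of single replicates reach that level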
PglD DTNB: C. jejuni PglD acetyltransferase inhibitors, primary screen, biochemical, DTNB colorimetric, single point. purified PglD enzyme, DTNB colorimetric CoA detection. inhibition, % at 12.5 µM. hit rate 0.098% among 360,000. AID 602405, 2012; in the data active = inhibition above about 16%, passing the limit was not always enough
FGF22 binding: binders of human FGF22 protein, primary screen, FGF22 synaptogenesis inhibitor project, biophysical, thermal shift, single point; hit rate 1.5% among 340,000; recombinant FGF22 thermal shift, SYPRO orange fluorescence; percent of sucrose octasulfate shift, DMSO zero; activity (Tm shift, normalised), % at 9.99 µM; AID 651658, 2012; Fibroblast growth factor 22 (Homo sapiens), Q9HCT0;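 active = mean Tm shift, scaled 0 neutral to 100 positive control, at about 1.3% or above, every replicate too, limit read from the data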
Yeast UUG start-2: enhancers of UUG start codon usage in yeast, dose response, S. cerevisiae, UUG firefly luciferase, cherry-pick, set 2. shares compounds with Yeast UUG start-1. luminescence, 4 h; 100% means double the DMSO signal. activation, % at 38 µM. 540 tested, under 10 active. AID 652061, 2013;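 active = signal increase whose fitted curve reaches an absolute level of 40 at a concentration under 10 µM; inactive = activity opposite to the expected increase, or the rest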
A number is an active result.

The chains behind the UniProt entries cited, without tags or fusion partners.
Protein disulfide-isomerase A6 (Homo sapiens), Q15084, UniProt Q15084, whole entry, looked up: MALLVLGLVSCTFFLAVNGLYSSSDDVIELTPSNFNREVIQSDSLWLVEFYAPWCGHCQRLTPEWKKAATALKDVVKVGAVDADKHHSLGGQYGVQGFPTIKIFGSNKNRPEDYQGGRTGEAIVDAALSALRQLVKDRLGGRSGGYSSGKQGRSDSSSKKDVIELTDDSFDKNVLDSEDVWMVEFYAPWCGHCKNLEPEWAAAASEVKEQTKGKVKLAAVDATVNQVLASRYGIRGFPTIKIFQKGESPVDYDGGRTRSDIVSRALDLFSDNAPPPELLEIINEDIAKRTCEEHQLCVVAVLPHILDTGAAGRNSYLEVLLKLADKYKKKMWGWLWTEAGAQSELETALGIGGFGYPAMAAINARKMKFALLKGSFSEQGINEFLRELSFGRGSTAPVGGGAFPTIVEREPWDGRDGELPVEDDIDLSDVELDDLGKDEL

Screening CCn1c(C(C)NC(C)=O)nc2ccccc21 (centres undefined) returned ARNT-TACC3 inh inactive, ERp5 inh inactive, Yeast UUG start-1 inactive, PglD DTNB inactive and FGF22 binding inactive.
COc1ccc(NC(=O)Nc2ccc3c(c2)CC(=O)N([C@H](C)CO)C[C@H](C)[C@@H](CN(C)Cc2ccncc2)O3)cc1 was read as ARNT-TACC3 inh inactive, ERp5 inh inactive, Yeast UUG start-1 inactive, PglD DTNB inactive and FGF22 binding inactive.
CCOC(=O)c1cnc2c(cnn2C)c1Cl was read as ARNT-TACC3 inh inactive, ERp5 inh inactive, PDI inh inactive and FGF22 binding 43.
`COc1ccccc1NC(=O)COc1ccc(-c2nn(C)c(=O)c3ccccc23)cc1` gave ARNT-TACC3 inh inactive, ERp5 inh inactive, Yeast UUG start-1 inactive, PDI inh inactive, PglD DTNB inactive and FGF22 binding inactive.
`Cc1csc(NC(=O)Cc2ccccc2Cl)n1` gave ARNT-TACC3 inh inactive, ERp5 inh inactive, Yeast UUG start-1 inactive, PDI inh inactive, PglD DTNB inactive and FGF22 binding inactive.
Screening COc1ccccc1NC(=O)Cc1nn(C)c(=O)c2ccccc12 returned ARNT-TACC3 inh inactive, Yeast UUG start-1 inactive, PDI inh inactive, PglD DTNB inactive and Yeast UUG start-2 inactive.
`COc1cccc(OC)c1NC(=O)Cc1nn(C)c(=O)c2ccccc12` gave ARNT-TACC3 inh inactive, Yeast UUG start-1 inactive, PDI inh inactive, PglD DTNB inactive and Yeast UUG start-2 inactive.
Screening Cc1csc(NC(=O)Cc2nn(C)c(=O)c3ccccc23)n1 returned ARNT-TACC3 inh inactive, Yeast UUG start-1 inactive, PDI inh inactive, PglD DTNB inactive and Yeast UUG start-2 inactive.
Cn1nc(CC(=O)NCc2ccc(F)cc2)c2ccccc2c1=O was read as ARNT-TACC3 inh inactive, ERp5 inh inactive, Yeast UUG start-1 inactive, PDI inh inactive, PglD DTNB inactive and FGF22 binding inactive.
For C[C@@H]1CN([C@H](C)CO)C(=O)c2cccc(N(C)C)c2O[C@H]1CN(C)S(=O)(=O)c1ccc(Cl)cc1 the results were ARNT-TACC3 inh inactive, ERp5 inh inactive, Yeast UUG start-1 inactive, PglD DTNB inactive and FGF22 binding inactive.
For CCC(=O)N[C@H]1CC[C@@H](CC(=O)OC)O[C@@H]1CO the results were ARNT-TACC3 inh inactive, ERp5 inh inactive, Yeast UUG start-1 inactive, PglD DTNB inactive and FGF22 binding inactive.
CNC[C@@H]1OCCCC[C@H](C)Oc2ccc(NS(=O)(=O)c3ccc(C)cc3)cc2C(=O)N([C@H](C)CO)C[C@@H]1C was read as ARNT-TACC3 inh inactive, ERp5 inh inactive, Yeast UUG start-1 inactive, PglD DTNB inactive and FGF22 binding inactive.
Screening CC1=C(C(=O)N(C)C)CC(CC(=O)NCCCN(C)C)C(=O)N1CCCN1CCCC1=O (centres undefined) returned ERp5 inh inactive, Yeast UUG start-1 104, PglD DTNB inactive, FGF22 binding inactive and Yeast UUG start-2 inactive.
`CC1=C(C(=O)N(C)C)CC(CC(=O)NCCc2ccccn2)C(=O)N1CCCN1CCCC1=O` (centres undefined) gave ERp5 inh inactive, Yeast UUG start-1 101, PDI inh inactive, PglD DTNB inactive, FGF22 binding inactive and Yeast UUG start-2 inactive.
Screening CCN(CC)C(=O)C1=C(C)N(CCCN2CCCC2=O)C(=O)C(CC(=O)NCCc2ccccn2)C1 (centres undefined) returned ERp5 inh inactive, Yeast UUG start-1 inactive, PDI inh inactive, PglD DTNB inactive and FGF22 binding inactive.
`CC1=C(C(=O)N(C(C)C)C(C)C)CC(CC(=O)NCCCN(C)C)C(=O)N1CCCN1CCCC1=O` (centres undefined) gave ERp5 inh inactive, Yeast UUG start-1 inactive, PglD DTNB inactive and FGF22 binding inactive.
Screening Cc1[nH]c2ccccc2c1/C=N/NC(=O)c1cc(-c2ccccc2)n[nH]1 returned ARNT-TACC3 inh inactive, ERp5 inh inactive, Yeast UUG start-1 169, PDI inh inactive, PglD DTNB inactive, FGF22 binding inactive and Yeast UUG start-2 inactive.
Cc1[nH]c2ccccc2c1/C=N/NC(=O)c1ccccc1 was read as ARNT-TACC3 inh inactive, ERp5 inh inactive, PDI inh inactive and FGF22 binding inactive.
CO[C@H]1CN(C)C(=O)c2ccc(NC(=O)CC(F)(F)F)cc2OC[C@@H](C)N(C(C)=O)C[C@@H]1C was read as ERp5 inh inactive and FGF22 binding inactive.
`COc1ccc2c3c([nH]c2c1)[C@@H](CO)NCC31CCN(C(=O)C2CCCC2)CC1` gave ERp5 inh inactive and FGF22 binding inactive.
For CCCCC12CN3CC(C)(CN(C1)C3c1ccc([N+](=O)[O-])o1)C2=O (centres undefined) the results were ARNT-TACC3 inh inactive, ERp5 inh inactive, Yeast UUG start-1 146, PDI inh inactive, PglD DTNB inactive, FGF22 binding inactive and Yeast UUG start-2 inactive.
Cn1cnc(S(=O)(=O)N2[C@@H]3CNC[C@H]2C3c2ccc(/C=C/c3ccccc3)cc2)c1 (some centres undefined) was read as ERp5 inh inactive.
For COCCSc1nnc(NC(=O)c2ccc3c(c2)OCO3)s1 the results were ARNT-TACC3 inh inactive, ERp5 inh inactive, PDI inh inactive and FGF22 binding inactive.
Screening COCCNc1nnc(SCC(=O)c2ccc3c(c2)OCO3)s1 returned ARNT-TACC3 inh inactive, Yeast UUG start-1 474, PDI inh inactive, PglD DTNB inactive and Yeast UUG start-2 inactive.
For CCC(=O)N(C)C[C@@H]1Oc2cc(-c3ccccc3C)ccc2S(=O)(=O)N([C@@H](C)CO)C[C@@H]1C the results were ARNT-TACC3 inh inactive, ERp5 inh inactive, Yeast UUG start-1 inactive, PglD DTNB inactive and FGF22 binding inactive.
Cc1ccc(NC(=O)/C(=C/c2cccc([N+](=O)[O-])c2)NC(=O)C2CCCCC2)cc1 was read as ARNT-TACC3 inh inactive, ERp5 inh inactive, Yeast UUG start-1 inactive, PDI inh inactive, PglD DTNB inactive and FGF22 binding inactive.
Screening Cc1ccc(NC(=O)/C(=C\c2cccc([N+](=O)[O-])c2)NC(=O)c2cccs2)cc1 returned ARNT-TACC3 inh inactive, Yeast UUG start-1 557, PDI inh inactive, PglD DTNB inactive and Yeast UUG start-2 inactive.

Assay outcomes: PubChem, Broad Institute
